Experimental data published in patent US10160812B2, “Bispecific HER2 antibodies” (MedImmune, LLC, priority 2014, dated 2018).

Tested on: BT-474 cells
Experiment: Confocal microscopy of internalization and lysosomal trafficking
Format: cell-based, human
Settings: 10 ug/mL
Description: Confocal microscopy method was used to visualize antibody internalization and lysosomal trafficking. BT-474 cells were harvested from a T-150 flask and resuspended in ice-cold culture media and then added to a 96-well U-bottom plate at 2.5×10^5 cells/well. Cells were pelleted by centrifugation at 4° C. […] Cells were incubated at 37° C./5% CO2 for a different period of time (30 min, 2 hours, 4 hours, or 6 hours) and then cooled on ice immediately. Cells were washed twice with ice-cold FACS buffer and then fixed and permeabilized using BD Biosciences Cytofix/Cytoperm™ Fixation/Permeabilization Solution according to manufacturer's instructions. Cells were stained in the dark with anti-human IgG Alexa-Fluor 488, and mouse anti-human LAMP-1 (clone H4A3) followed by anti-mouse IgG Alexa-Fluor 647. After staining, cells were cytospun onto positive charge slides and coversliped with ProLong® Gold Antifade Reagent containing DAPI. Cells were then visualized by Leica SP5 Confocal Microscope and the Leica Application Suite Advanced Fluorescence software suite.

trastuzumab: recombinant humanized version of the murine HER2 antibody 4D5 [reference compound]
internalization and lysosomal trafficking: little to no internalization
